Data from patent US7855294B2, “Cycloalkanopyridine derivative” (Banyu Pharmaceutical Co., Ltd., priority 2004, dated 2010).

The chains behind the UniProt entries cited, without tags or fusion partners. Where a name states a change or a piece, a line headed by the entry shows the natural chain unless it says otherwise.
UniProt P41146: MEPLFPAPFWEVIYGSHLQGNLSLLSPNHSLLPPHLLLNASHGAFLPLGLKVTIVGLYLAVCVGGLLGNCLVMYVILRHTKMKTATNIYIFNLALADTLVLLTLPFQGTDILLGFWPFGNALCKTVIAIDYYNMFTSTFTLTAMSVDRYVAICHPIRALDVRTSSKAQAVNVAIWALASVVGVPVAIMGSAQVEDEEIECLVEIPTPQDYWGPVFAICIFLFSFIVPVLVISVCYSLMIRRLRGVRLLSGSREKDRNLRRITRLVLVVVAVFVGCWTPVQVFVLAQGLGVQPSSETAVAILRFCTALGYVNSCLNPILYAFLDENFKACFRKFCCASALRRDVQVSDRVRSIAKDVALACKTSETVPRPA

Experiments:
nociceptin receptor ORL1 [1] = target: T1, nociceptin receptor ORL1 (Homo sapiens, UniProt P41146); assay: Nociceptin receptor binding inhibition assay ([125I]Tyr14-Nociceptin, CHO/ORL1 membrane fractions, SPA beads); set-up: expressed in transfected cells; membrane fractions
Protocol: A cDNA that codes for a human nociceptin receptor gene was cloned into an expression vector pCR3 (by Invitrogen) to prepare pCR3/ORL1. Next, pCR3/ORL1 was transfected in CHO cells using a transfectam (by Nippongene) to obtain a stable expression strain (CHO/ORL1 cells) having resistance against 1 mg/ml G418. Membrane fractions were prepared from this stable expression strain to carry out a receptor binding assay. 11 μg of the membrane fraction, 50 pM [^125I]Tyr^14-Nociceptin (by Amersham Pharmacia), 1 mg of wheat germ agglutinin SPA beads (PVT based, by Amersham Pharmacia) and each test compound were suspended in an NC buffer (50 mM Hepes, 10 mM sodium chloride, 1 mM magnesium chloride, 2.5 mM calcium chloride, 0.1% BSA, 0.025% bacitracin, pH 7.4) and incubated at 37° C. for 60 minutes, and then the radioactivity of the culture was determined.

nociceptin receptor ORL1 [2] = target: T1, nociceptin receptor ORL1; assay: Antagonism against nociceptin-elicited G protein activation (GTPγ[35S] binding, CHO/ORL1 membrane); assay type: biochemical; set-up: expressed in transfected cells; membrane preparation
Protocol: CHO cells which stably expressed a nociceptin receptor ORL1 were used to investigate the action of each test compound against nociceptin-elicited G protein activation. A membrane prepared from the CHO/ORL1 cells, 50 nM nociceptin, 200 pM GTPγ[^35S] (by NEN), 1.5 mg of wheat germ agglutinin SPA beads (by Amersham Pharmacia) and each test compound were mixed in a GDP buffer (20 mM Hepes, 100 mM sodium chloride, 10 mM magnesium chloride, 1 mM EDTA, 5 μM GDP, pH 7.4) and incubated at 25° C. for 150 minutes, and then the radioactivity of the culture was determined.

For `Cl.O[C@H]1C[C@H](CN2CC[C@H](c3ccc(F)cc3Cl)[C@@H](O)C2)Cc2cccnc21` [Example 33, (6R,8S)-6-[(3R,4R)-4-(2-chloro-4-fluorophenyl)-3-hydroxypiperidin-1-ylmethyl]-5,6,7,8-tetrahydroquinolin-8-ol monohydrochloride], the IC50 (nociceptin receptor ORL1 [1]) was 9 nM and the IC50 (nociceptin receptor ORL1 [2]) was 5.9 nM.
